Results reported in patent publication US20220016023A1, “METHOD FOR TREATING MYOPIA AND APPLICATION IN PREPARATION OF MEDICAMENT” (WENZHOU MEDICAL UNIVERSITY, priority 2018, published 2022).

Test system: form deprivation myopia
Settings: periocular injection of 0.1 ml of 10 μM prazosin, 2 weeks form deprivation; FDM+Vehicle 35.79; p<0.05; FIG. 6C

Compound: COc1cc2nc(N3CCN(C(=O)c4ccco4)CC3)nc(N)c2cc1OC [prazosin]
- choroidal blood flow (ChBF signal points) of test eye: 37.01±6.26 ×10 3
